## Apparent affinities of Ab-14 variants for a coronavirus HR2 peptide

The measurements come from Li et al. 2023 (doi:10.1038/s41467-023-39022-2) through the FLAb antibody collection.

The target is the same throughout: PDVDLGDISGINAS, from the HR2 region of SARS-CoV-2 spike.

Each scFv is VH, a (GGGGS)3 linker, VL, as in the parent Ab-14, and differs from it in the CDRs of the light chain only.
VH: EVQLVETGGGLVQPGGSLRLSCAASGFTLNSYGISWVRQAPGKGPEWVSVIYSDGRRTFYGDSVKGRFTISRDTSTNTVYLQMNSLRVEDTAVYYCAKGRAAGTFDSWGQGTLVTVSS
VL: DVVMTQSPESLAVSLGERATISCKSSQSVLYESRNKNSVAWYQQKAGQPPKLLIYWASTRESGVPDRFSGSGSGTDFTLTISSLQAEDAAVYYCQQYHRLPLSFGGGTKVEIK

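The parent was found by panning a naive human phage display library on the peptide. This is the validation round: designs drawn from the data on random variants, tested in the same kind of assay. Several design methods are mixed in this list. AlphaSeq pools MATa yeast showing the antibodies with MATalpha yeast showing the peptide. The frequency of each diploid, read from paired DNA barcodes, reflects how well the two displayed proteins bind. The ratio of observed to expected reads was calibrated, replicate by replicate, on BCL2-family standards whose Kd was known from biolayer interferometry. The assay was run in six technical replicates.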

Each variant is given by its three light chain CDRs, as the data file delimits them; those of the parent are KSSQSVLYESRNKNSVA, WASTRES, QQYHRLPLS. This list holds designs with more than six substitutions. Values are apparent Kd, the geometric mean of the replicates that gave a signal; lower means stronger binding. The list is sorted by this average, lowest first.

Variant KLSMSVWMGSRNKNSVA / SANTREE / QQYHRLPLS gave 570 pM (6 of 6 replicates). Variant KFEQLHLYESRNKNSVA / QGSTREM / QQYHRLPLS showed 1.1 nM (6 of 6 replicates). With KFSPSFLYWSRNSNAVA / EASTRES / QQYHRLPLS the result was 1.8 nM (6 of 6 replicates). Variant SITYLDNRGSQGHNNIA / SGSCRAE / QQYIRLPLI gave 2.0 nM (6 of 6 replicates). For SLMQSWLYESRNKNSVA / HASLRED / QQYHRLPLS, the assay gave 2.1 nM (6 of 6 replicates). For NITYAAEQLQRIDSNVA / AGSARCR / QQYYRLPLS, the assay gave 2.3 nM (6 of 6 replicates).

Variant QLEVFPLQAGSTYQAIA / DASHSTP / QQYSRLPLV gave 2.3 nM (6 of 6 replicates). Variant KLSQSDWMESRNPNNVA / HASYRES / QQYHRLPLS gave 2.5 nM (6 of 6 replicates). For TIFQERSYEDGDERNIA / DARTRND / QQYNRLPLV, the assay gave 3.1 nM (6 of 6 replicates). With HINDMLLGSEKIAHSIA / NTGVTSR / QQYSRLPLI the result was 3.2 nM (6 of 6 replicates). Variant NVNVSEDQWPSSKNAIA / QTTCRNL / QQYAHLPLS showed 3.4 nM (6 of 6 replicates). Variant KFSQMVNTLSVSKSAVA / EMSTRPE / QQYNRLPLS showed 3.5 nM (6 of 6 replicates).

Variant KLGATLNTLSEKKNNVA / DLVMREN / QQYHRLPLS gave 3.8 nM (6 of 6 replicates). For KLSMTTEMELKNRNSVA / ELVTRMS / QQYNRLPLS, the assay gave 3.8 nM (6 of 6 replicates). For TISQSFLMENQFKNSVA / QASTREA / QCYDRLPLS, the assay gave 4.1 nM (6 of 6 replicates). For KAQQSVGYGERNSNSVA / EASTRES / QQYHRLPLS, the assay gave 4.5 nM (6 of 6 replicates). For TISQMTSLFSQSLNNVA / EVSTREP / QQYDRLPLS, the assay gave 5.3 nM (6 of 6 replicates). With KLDISELYESRNWNSVA / NASTREE / QQYHRLPLS the result was 5.8 nM (6 of 6 replicates).

Variant KYQFSELELSRNKNSVA / WASTREL / QDYHRLPLS showed 6.7 nM (6 of 6 replicates). For KVSQSVLMESCNVNNVA / YASTRED / QQYHRLPLS, the assay gave 7.0 nM (6 of 6 replicates). Variant HMSMLTLMGMRQRNSVA / QMTTREN / QQYDRLPLA showed 9.4 nM (4 of 6 replicates). Variant HISQMVMYGSCNKNNVA / QVTLRGE / QQYHRLPLS gave 12 nM (6 of 6 replicates). With KLSQVTGHLSVEKNNVA / EMETREE / QQYDRLPLS the result was 13 nM (6 of 6 replicates). Variant KLSEISHFESKKKNSVA / ENNTREE / QQYDHLPLS showed 15 nM (4 of 6 replicates).

For MISQMYNMGSFAINSVA / QASLRNE / QQYDRLPLI, the assay gave 17 nM (6 of 6 replicates). For HIGLATMLQETVRNSVA / NNSTRES / QQYDRLPLS, the assay gave 22 nM (6 of 6 replicates). Variant KLDGSDLYEQRNKNSVA / EASTRES / QAYHRLPLS gave 29 nM (6 of 6 replicates). Variant QLSGPMLSESKNKNSVA / EFSTRGS / QQYHRLPLS showed 52 nM (6 of 6 replicates). Variant IFSQSVLMGNMTRNSVA / QASERFN / QQYDRLPLI showed 150 nM (6 of 6 replicates). With ILSQSVLMGMHLKNSVA / QATMRFN / QQYDRLPLM the result was 310 nM (1 of 6 replicates).

Picked from the list: the 5 lowest averages where every replicate gave a value.

CDR-L1	CDR-L2	CDR-L3	Kd	replicates with signal
KLSMSVWMGSRNKNSVA	SANTREE	QQYHRLPLS	570 pM	6 of 6
KFEQLHLYESRNKNSVA	QGSTREM	QQYHRLPLS	1.1 nM	6 of 6
KFSPSFLYWSRNSNAVA	EASTRES	QQYHRLPLS	1.8 nM	6 of 6
SITYLDNRGSQGHNNIA	SGSCRAE	QQYIRLPLI	2.0 nM	6 of 6
SLMQSWLYESRNKNSVA	HASLRED	QQYHRLPLS	2.1 nM	6 of 6

A sequence measured in both rounds can read differently, since the two assays cover different ranges. Of ten entries with the parent sequence, four were seen in most replicates (averages 2.2 nM to 240 nM), three in one and three in none, so single entries are noisy. Three control strains display no target. For all light chain designs, 4% of the pairings with them gave a signal, with a median of 430 nM and one signal in twenty below 38 nM, so weak values seen in few replicates may be background. In the paper, a design with two or fewer of six values counts as a poor binder.